Experimental data taken from US11993574B2, “Pyrazole and imidazole compounds for inhibition of IL-17 and RORgamma” (REATA PHARMACEUTICALS, INC., priority 2018, dated 2024).

Chains of the proteins cited; added tags and fusions are not shown. Residues count along the entry.
UniProt P51449, 269-508 limits assumed: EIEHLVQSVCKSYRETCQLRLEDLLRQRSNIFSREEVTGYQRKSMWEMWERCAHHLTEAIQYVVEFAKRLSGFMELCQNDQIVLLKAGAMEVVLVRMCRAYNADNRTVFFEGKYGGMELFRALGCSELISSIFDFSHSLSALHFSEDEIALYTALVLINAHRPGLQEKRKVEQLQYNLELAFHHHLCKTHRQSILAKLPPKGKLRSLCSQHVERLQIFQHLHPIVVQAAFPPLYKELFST

Columns and labels:
[1] = tested on: Nrf2 transcription factor; test: AREc32 luciferase reporter assay; details: AREc32 cells, 19 hours; concentration required to increase GST ARE luciferase reporter activity by 2-fold
From the text: A. AREc32 Luciferase Reporter Assay
The AREc32 luciferase reporter assay allows for quantitative assessment of the endogenous activity of the Nrt2 transcription factor in cultured mammalian cells. AREc32 cells are derived from MCF-7 human breast carcinoma cells that were stably transfected with a reporter construct that contains the firefly luciferase gene located downstream of eight copies of the rat GSTA2 antioxidant response element (ARE) sequence (Wang et al., 2006; Concept Life Sciences Integrated Discovery and Development Services Ltd (CLSIDDS)). Active Nrf2 binds to the ARE sequences and increases expression of the firefly luciferase gene. To assess the Nrf2-activating potential of the test compounds, AREc32 cells were plated in black […] plates at a density of 20,000 cells per well in triplicate in DMEM+10% FBS+0.8 mg/mL Geneticin and incubated at 37° C. with 5% CO2 in a humidified atmosphere. […] Luciferase activity was determined using the ONE-Glo Luciferase assay (Promega). The luminescence signal was measured on a BMG Pherastar microplate reader. The mean luminescence value from test compound-treated wells was normalized to that from DMSO-treated wells and was represented as fold-induction. Data were analyzed using GraphPad Prism version 6.00 for Windows, GraphPad Software, La Jolla Calif. […]

IL-17A = test: IL-17 release from differentiated primary human T-cells (IL-17A HTRF assay); details: read-out: hIL17 IC50; primary human CD4+ T cells differentiated into Th17 cells, 45-hour incubation, IL-17A in supernatant
Method: C. IL-17 Release from Differentiated Primary Human T-Cells and Cell Viability
Primary human cryopreserved CD4+ T Cells (Lonza) were thawed according to the manufacturer's recommendations and plated either in Lymphocyte Growth Medium-3 (LGM-3) or X-VIVO 20 media (Lonza) in 96-well tissue culture plates at a density of ˜2×10^5 cells per well, and allowed to recover for approximately 4 hours at 37° C. with 5% CO2 in a humidified atmosphere. After the recovery step, DMSO (vehicle) or test compound at doses ranging from 2 to 500 nM or 4 to 1000 nM in a three-fold dilution series was added to the cells. Three replicate wells were tested for each treatment condition. […] Cell viability was assessed in the original plate using the CyQuant Direct Assay (Life Technologies). […] Fluorescence was read on a SpectraMax M2e spectrophotometer at 480 nm (excitation) and 535 nm (emission) wavelengths. […] The concentration of IL-17A in the supernatant was measured using the Homogeneous Time-Resolved Fluorescence (HTRF) assay (Cisbio Bioassays) according to the manufacturer's protocol. […] Data were analyzed using GraphPad Prism (GraphPad Software, La Jolla California USA). […] The IC50 values for compound-mediated reduction in IL-17A levels and cell viability were determined by non-linear regression analysis using the log(inhibitor) vs. normalized response with variable slope equation. […]

[2] = target: Human RAR-related Orphan Receptor Gamma (RORγ) (Homo sapiens, UniProt P51449); test: RORγ assay (GAL4-RORγ hybrid luciferase reporter, Indigo Biosciences); details: read-out: RORγ IC50; inverse-agonist activity, GAL4-RORγ reporter cells, 23 hours
From the text: B. RORγ Assay and Cell Viability
The RORγ assay system was purchased from Indigo Biosciences. This nuclear receptor assay utilizes a human cell line that has been engineered to express a hybrid form of the Human RAR-related Orphan Receptor Gamma (RORγ) at high levels. The N-terminal DNA binding domain (DBD) of the native RORγ receptor was substituted with the yeast GAL4-DBD to generate the GAL4-RORγ hybrid nuclear receptor. The reporter cell line is transfected with a plasmid that encodes the beetle luciferase gene under the control of the GAL4 upstream activating sequence (UAS). GAL4 binds to the UAS and increases transcription of downstream target genes. The GAL4-RORγ hybrid is constitutively active; therefore, the principle application of this reporter assay system is to screen test compounds to quantify inverse-agonist activities against human RORγ. Because the ligand binding domain (LBD) of RORγ is identical to the LBD of RORγt, this assay is an accurate surrogate for evaluating activity of experimental ligands against RORγt. […] After this incubation, luciferin was added to the wells and luciferase activity was determined by measuring the luminescence signal using a BMG Pherastar microplate reader. Viability was determined using the Live Cell Multiplex Assay (Indigo Biosciences). […] Data were analyzed using GraphPad Prism version 6.00 for Windows (GraphPad Software, La Jolla Calif. USA). […]

Row | NRF2 ARE 2-Fold (EC2×) [1] | IC50 (IL-17A) | IC50 [2] | Compound
1 | 0.502 µM | 141 nM | 257 nM | C[C@@]12C=C(C#N)C(=O)C[C@H]1CCc1c(-c3ccccc3)nn(-c3ccc(C#N)cc3)c12
2 | 0.292 µM |  | 248 nM | C[C@@]12C=C(C#N)C(=O)C[C@H]1CCc1c(-c3ccccc3)nn(-c3ccc(F)cc3)c12
